Drawing on US5972952A, “Neuroprotective pharmaceutical composition containing stereoisomers of arylcyclohexylamines” (Le Centre National De La Recherche Scientifique, priority 1996, dated 1999), this text covers IC50 for one molecule.

The experiment deals with PCP receptor. Description: [^3H]TCP binding to the PCP receptor (rat brain minus cerebellum homogenate). The following applies: inhibition of [^3H]TCP (1 nM) specific binding, 30 min, 25° C., pH 7.7. The procedure: [^3 H] 1-[1-(2-thienyl)-2-methylcyclohexyl]piperidine (TCP) binding to the PCP receptor was performed as previously described. Vignon, et al., Brain Research 280:194-197 (1983). The PCP receptor site is a regulatory site within the NMDA receptor complex. Scatton, B., Fundam. Clin. Pharmacol. 7:389 (1993) and J. T. Wroblewski, et al., Proc. Natl. Assoc. Sci. USA 89:5068 (1987). The rat brain (minus the cerebellum) was removed and homogenized with an Ultraturax (Ika Werke, Staufen, Germany, maximum setting) in a 50 mM Tris/HCl, pH 7.7 buffer for 20 s at 4° C. The homogenate was then centrifuged at 49,000 g for 20 min. and the pellet was resuspended in the same buffer and the homogenization-centrifugation steps performed a second time. […]
The homogenate (0.5-0.8 mg protein/ml) was incubated with N-[1-(2-thienyl) cyclohexyl]3,4-[^3 H]piperidine ([^3 H]TCP, 1 nM) (Amersham, Arlington Heights, Ill, 48 Ci/mmol) in a 5 mM Tris/Hepes, pH 7.7 buffer in the absence (total binding) and in the presence of the test compounds for 30 min. at 25° C. in a volume of 0.5 ml. […] The filters were rinsed twice with 5 ml of a 50 mM NaCl, Tris HCl 10 mM, pH 7.7 buffer and the radioactivity retained counted in 3.5 ml ACS (Amersham) with an Excel 1410 (LKB) liquid scintillation spectrophotometer. The nonspecific binding was determined in parallel experiments in the presence of 100 μM unlabeled TCP. […]

As a reminder, the IC50 is the concentration needed to halve the response being measured. The low end stands for greater potency in that assay, the high end for weaker potency in that assay. Molecule `C[C@@H]1CCCC[C@]1(c1cccs1)N1CCCCC1` [(1S,2R)1-[1-(2-Thienyl)-2-methylcyclohexyl]-piperidine] returned an IC50 of 4.3 ± 1.1 nM.
